## scFv variants of Ab-14 (heavy chain) against a SARS-CoV-2 spike peptide

Data: MIT Lincoln Laboratory AlphaSeq set, Li et al. 2023, doi:10.1038/s41467-023-39022-2, as distributed in FLAb.

Binding partner: SARS-CoV-2 spike HR2 peptide, sequence PDVDLGDISGINAS.

The variants keep the light chain, the linker and the frameworks of Ab-14 (scFv order VH, a 15-residue (Gly4Ser)3 linker, VL).
VH: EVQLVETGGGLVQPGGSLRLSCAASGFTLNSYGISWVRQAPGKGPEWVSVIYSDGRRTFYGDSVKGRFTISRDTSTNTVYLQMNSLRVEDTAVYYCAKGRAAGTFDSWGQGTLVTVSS
VL: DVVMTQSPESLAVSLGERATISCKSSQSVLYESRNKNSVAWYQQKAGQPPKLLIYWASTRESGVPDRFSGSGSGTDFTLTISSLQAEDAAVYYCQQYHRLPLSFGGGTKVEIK

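This is the validation round: designs drawn from the data on random variants, tested in the same kind of assay. Several design methods are mixed in this list. The scFvs were displayed on barcoded MATa yeast, the peptide on MATalpha yeast. Pairs that bind mate more often; barcode pairs of the diploids are counted by sequencing. Each replicate has its own calibration line, from reference interactions of the BCL2 family. Each pool was mated in six replicate cultures.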

The parent's heavy chain CDRs are GFTLNSYGIS, VIYSDGRRTFYGDSVK, GRAAGTFDS; each variant's own CDRs replace them letter for letter. The Kd shown is the geometric mean over detected replicates; a lower Kd is a better binder. "nd" means that the variant was in the library but no mating with the target was seen in any replicate; the authors take this as a sign of poor binding, and no number exists. Some sequences occur more than once in the pool; their replicates are pooled. The authors' rule: three or more of the six replicates give a measured affinity, fewer mean a poor binder. The range of this assay differs from that of the first round, and the authors advise against merging the two. Empty control strains, which show no peptide, gave a signal in 1% of pairings with all heavy chain designs; the median was 120 nM and 95% of these signals were weaker than 7.0 nM. No background was subtracted.

CDR-H1,CDR-H2,CDR-H3,Kd (apparent),replicates with signal
GFTLNEYSIS,VIYSDGRRTFYGDSVK,GRSAGTFDS,nd,0/6
GFDLEDYGIS,VIYADGMRTAYTDSVK,GNQAGTFDV,590 pM,6/6
GFTLNSYGIS,VHYADGRRTFYGDSWK,GRAAGTNKS,nd,0/6
GFQLDEYGIS,VIYADGRRTFYQDSVK,GNVAGTFDS,370 pM,6/6
GFTLNSYGIS,VIYSDGRRTQYGDSVK,GRAAGTFDS,400 nM,3/30
GFSLNEYGIS,VIYSDGWRTFYGDSVK,GRTAGTFDS,1.0 nM,6/6
GFDLDEYGIS,VIYADGKRTAYQADVK,GVQGGNALV,nd,0/6
GFSIDEQGIS,VIYADGIRASYAEKVK,GQYGGDFIE,nd,0/6
GFDINEYGIS,VIYADGIRTAYVSKVK,GRDIINVLF,nd,0/6
GFDLDEYGIS,VIYADGKRTRYSNNVK,GGVGGIGLS,37 nM,1/6
GFDLNEYGIS,VIYADGKRTAYADSVK,GNTAGTFDL,360 pM,6/6
GFSLDEVGIS,VIYADGRRAFYSDNVK,GENNVVFNE,nd,0/6
GFDLNEYGIS,VIYADGKRTFYTDSVK,GANAGTFDQ,300 pM,6/6
GFNLDEYGVS,VIYADGMRMAYQNKVK,GQKGDVFLM,nd,0/6
GFDLNEYGIS,VIYADGMRTFYADSVK,GKNAGTFDQ,6.0 nM,4/6
GEKLDSYGIS,VIYSDGMRTFYGDSVK,GRAAGTFDS,29 nM,1/6
GFQLNEYGIS,VIYSDGRRTFYSDSVK,GRAAGKFDS,nd,0/6
GEDLDEYGIS,VIYADGRRVVYQDQVK,GELAGTVDQ,460 nM,5/6
GFTLCSYGIS,VIYADGRRTFYGDSVK,GRAAGTNKS,nd,0/6
GVTLNSYGIS,VIYSDGRRRFYGDSVK,GFAPGTFDS,nd,0/6
GFTLNSYGIS,VIYSDGYRTVYNDSVK,GRAAGTFES,nd,0/6
GFDLDEYGIS,VIYADGQRTAYADDVK,GNNAGTFDV,400 pM,6/6
GFSLNSYGIS,VIYSDGRRTFYGDNVK,GQAAGTFDA,5.8 nM,5/6
GFTLNSRGIS,VIYSDGRRFFYSDSVK,GRAGGTFDS,nd,0/6
GFNLNSYGIS,VIYSDGRRTFYGDSVK,GQAAGTFDT,500 pM,3/6
GFTLNSYKIS,VIYSDGRRTTYSDSVK,GRAGGTFDS,nd,0/6
GFDLNEYGIS,VIYADGKRQAYADSVK,GEVAGTFDV,160 pM,6/6
GFSLDEYGIS,VIYADGRRTFYADSVK,GNQAGTFDS,290 pM,6/6
GFDLNEYGIS,VIYADGLRTSYADSVK,GENAGTFDQ,250 pM,6/6
GFTLNDYGIS,VIYSDGRRTFYLDSVK,GRAAGTFDK,21 nM,6/6
GFDLNEYGIS,VIYADGKRTAYADSVK,GENAGTFDT,180 pM,6/6
GFDLDEYGIS,VIYADGMRTAYTDSVK,GQNAGTFDI,2.3 nM,6/6
GFTLNQYGIS,VIYSDGRRTSYSDSVK,GRAAGTFDS,1.5 nM,6/6
GFDLNSYGIS,VIYSDGRRTFYGDSVK,GRAAGWFTS,nd,0/6
GFTLNSYGIS,VIYSDGRRTFYSDSVK,GRVGGTFDT,3.2 nM,6/6
GFHLNSYGIS,VIYSDERRTFYGDSVK,GRAAGTFDS,nd,0/6
GFNLNSYGIS,VIYSDGRRTFYQDSVK,GRLAGTFDS,21 nM,6/6
GFTLNSYGIS,VIYADGRRTFYEDSVK,GRAAGTNKS,nd,0/6
GFSLNSYGIS,VIYSDGRRTFYADRVK,GEAAGTFDT,3.1 nM,5/6
GFTLNSYGIS,VIYSDGMRTFYSDSVK,GREAGTFDT,1.4 nM,6/6
GFTLNDYGIS,VIYSDGRRTQYIDSVK,GRAAGTQDS,nd,0/6
GFDLNEYGIS,VIYADGVRTAYSDSVK,GNQAGTFDV,260 pM,5/6
GFDLNEYGIS,VIYADGMRTFYADNVK,GEVAGTFDI,750 pM,6/6
PFELNSYGIS,VIYSDGRRTFYIDSVK,GRQAGTFDS,nd,0/6
GFDLDEYGIS,VIYADGMRTFYADSVK,GSNAGTFDQ,450 pM,6/6
MFWLNEYGIS,VIYSDGRRTFYGDSVK,GRTAGTFDS,nd,0/6
GFTLNDYGIS,VIYSDGRRTFYGDSVK,GRMAGTFLS,1.0 nM,6/6
GFELDEYGIS,VIYADGHRRAYADKVK,GMHMGSVQH,11 nM,1/6
GMNLDEYGIS,VIYADGLRTEYANTVK,GEMAGFFMD,nd,0/6
GFTLNSYGIS,VIPSDGYRTFYLDSVK,GRAAFTFDS,nd,0/6
GFTLNSYGIS,VIYSDGRRTFYEDSVK,TRAAGTFDS,nd,0/6
GFDLNEYGIS,VIYADGQRTAYADNVK,GQVAGTFDI,820 pM,6/6
GFYLNEYGIS,VIYADGIRSVYANKVK,GNGAGTLDY,nd,0/6
GFDLDEYGIS,VIYADGKRTAYIDSVK,GNVAGTFDI,420 pM,6/6
GFDLNSYGIS,VIYSDGRRTFYADSVK,GQLAGTFDS,850 pM,6/6
GFTLNQYGIS,VIYSDGRRTFYKDSVK,GRAAKTFDS,nd,0/6
GFNLNSYGIS,VIYSDGRRTFYGDAVK,GRNAGTFDS,8.9 nM,4/6
GRTLNEYGIS,VIYSDGRRTFYTDSVK,GRFAGTFDS,1.0 nM,6/6
GFTLNEYGIS,VIYSDGRRTFYVDDVK,GRTAGTFDS,1.7 nM,6/6
GFTLNSYGIS,VIYSDGRRTFYNDAVK,GELAGTFDS,6.2 nM,6/6
GFTLNEYGIS,VIYSDGRRTSYGDSVK,GRAAGTFDS,830 pM,6/6
GFELNSYGIS,VIYSDGRRTFYGDSVK,GSVAGTFDS,1.1 nM,6/6
GFDLNEYGIS,VIYADGQRTAYADDVK,GNVAGTFDQ,200 pM,6/6
GFDLQEYGVS,VIYADGRRAQYASKFK,GNFSGNFDK,260 pM,6/6
GFDLNEYGVS,VIYADGFRTSYTDSVK,GNVVDLSMA,nd,0/6
GFRLNSYGIS,VIYSDGRRTFYGDSVK,GRAAGTFDQ,nd,0/6
GFTLNEYGIS,VIYSDGRRTFYTDSVK,GRFAGTFDW,2.6 nM,2/6
GFTLNSYGVS,VIYSDGRRTFYADSVK,GRAAGTFRS,nd,0/6
GFDLDEYGIS,VIYADGRRTFYADSVK,GENAGTFLS,3.4 nM,6/6
GFSLNSYGIS,VIYADGMRTFYGDSVK,GRMAGTFNS,6.3 nM,6/6
GFTLNQYGIS,VIYSDGRRTFYGNSVK,GRAAGTFHS,nd,0/6
GFVLNEYGIS,VIYADGRRTFYGDSVK,GRAAGTFDS,1.1 nM,6/6
GFDLNEYGIS,VIYADGRRTQYIDSVK,GEVAGTFDA,780 pM,5/6
YFDLNSYGIS,VIYSDGRRTFYGDSVK,GKTAGTFDS,14 nM,5/6
GTTLESYGIS,VIYSDGRRVFYNDSVK,GRAAGTFDS,85 nM,1/6

Picked from the list: the 7 lowest averages where every replicate gave a value.

| CDR-H1 | CDR-H2 | CDR-H3 | Kd (apparent) | replicates with signal |
|---|---|---|---|---|
| GFDLNEYGIS | VIYADGKRQAYADSVK | GEVAGTFDV | 160 pM | 6/6 |
| GFDLNEYGIS | VIYADGKRTAYADSVK | GENAGTFDT | 180 pM | 6/6 |
| GFDLNEYGIS | VIYADGQRTAYADDVK | GNVAGTFDQ | 200 pM | 6/6 |
| GFDLNEYGIS | VIYADGLRTSYADSVK | GENAGTFDQ | 250 pM | 6/6 |
| GFDLQEYGVS | VIYADGRRAQYASKFK | GNFSGNFDK | 260 pM | 6/6 |
| GFSLDEYGIS | VIYADGRRTFYADSVK | GNQAGTFDS | 290 pM | 6/6 |
| GFDLNEYGIS | VIYADGKRTFYTDSVK | GANAGTFDQ | 300 pM | 6/6 |